Measurements from ChEMBL document CHEMBL1221395, “Synthesis, anticancer activity and mitochondrial mediated apoptosis inducing ability of 2,5-diaryloxadiazole-pyrrolobenzodiazepine conjugates” (Bioorg Med Chem, 2010).

System: Calf thymus DNA
Assay: Binding affinity to calf thymus DNA assessed as change in melting temperature after 18 hrs
Assay type: nucleic-acid assay
Conditions: Bos taurus
Procedure, shortened: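 Thermal melting with duplex CT-DNA (100 µM in phosphate) and ligand (20 µM), added from methanol stock, [PBD]/[DNA] 1:5, in 10 mM sodium phosphate + 1 mM EDTA, pH 7.00; incubated at 37 °C for 18 h. A260 monitored while heating at 1 °C/min over 40–90 °C. Tm taken from d(A260)/dT maxima, corrected for methanol; ΔTm = Tm(DNA+ligand) − Tm(DNA alone); at least three determinations.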

For `COc1cc2c(cc1O)N=C[C@@H]1CCCN1C2=O`, which ΔTm is on record?
The ΔTm was 0.7 °C.
